# Antibody variant affinities, Ab-14 heavy chain, assay B

Reference: Li et al. 2023, doi:10.1038/s41467-023-39022-2. File: FLAb, binding data.

Target peptide (SARS-CoV-2 spike, HR2 region): PDVDLGDISGINAS

Parent: Ab-14, a human scFv built as VH, the linker GGGGSGGGGSGGGGS, VL. Only the CDRs of the heavy chain vary.
VH: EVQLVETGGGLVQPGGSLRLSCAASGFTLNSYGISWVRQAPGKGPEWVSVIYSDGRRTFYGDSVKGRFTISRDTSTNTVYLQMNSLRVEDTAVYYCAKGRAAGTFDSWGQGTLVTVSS
VL: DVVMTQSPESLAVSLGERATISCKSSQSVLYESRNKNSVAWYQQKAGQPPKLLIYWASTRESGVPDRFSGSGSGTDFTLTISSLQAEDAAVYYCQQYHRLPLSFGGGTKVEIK

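Phage display of a naive human antibody library on the peptide gave the parent. Designed CDR sequences, proposed from the first random library and measured here. Group labels follow the data file (Ctrl: baseline library sampled from a position-specific scoring matrix, with some repeated check sequences; Rand: our label for a block that the file lists under HC and that is probably the random mutants of the ten best first-round binders; En: ensemble of fine-tuned language models; GP: Gaussian process model; GPLM: also part of the Gaussian process libraries; HC: hill climbing; Gen: genetic algorithm; Gibbs: Gibbs sampling; a sequence that several methods proposed may carry one label only). In AlphaSeq, yeast of one mating type display the scFv and yeast of the other type display the target. Pairs that bind mate more often; barcode pairs of the diploids are counted by sequencing. Read counts were normalised to the haploid input and turned into Kd by a linear fit to BCL2-family pairs of known affinity, for each replicate. Mating was done six times.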

Each variant is given by its three heavy chain CDRs, as the data file delimits them; those of the parent are GFTLNSYGIS, VIYSDGRRTFYGDSVK, GRAAGTFDS. Numbers give log10(Kd / nM), so 0 is 1 nM and 3 is 1 µM. Smaller is tighter. A mean of the replicates is given; it leaves out those without a signal. "nd" means that the variant was in the library but no mating with the target was seen in any replicate; the authors take this as a sign of poor binding, and no number exists. A sequence measured in both rounds can read differently, since the two assays cover different ranges.

| CDR-H1 | CDR-H2 | CDR-H3 | group | log10 Kd (nM), mean | seen in | signal with controls |
|---|---|---|---|---|---|---|
| GFDLNEYGIS | VIYADGMRTAYADSVK | GNNAGTFDT | En_Gen | -0.58 | 6 of 6 | 0 of 18 |
| GFDLDEYGIS | VIYADGRRTAYSDSVK | GGNAGTFDV | En_Gen | nd | 0 of 6 | 1 of 18 |
| GHTLNSYGIS | VIYADGLRTFYGGAVK | GQAAGTFDS | Ctrl | nd | 0 of 6 | 0 of 18 |
| HFTLNEYGIS | VIYSDGRRTFYGDSVK | GRAAVTFDT | GP_HC | nd | 0 of 6 | 1 of 18 |
| GFELNEYGIS | VIYSDGRRTFYGDSVK | GRCAGTFDS | GP_Gen | 0.89 | 2 of 6 | 0 of 18 |
| GFDLNSYGIS | VIYSDGRRTFYIDSVK | GQVAGTFDS | GPLM_Gibbs | 0.00 | 6 of 6 | 0 of 18 |
| GFDLNEYGIS | VIYADGMRTQYADSVK | GENAGTFDL | En_Gen | 0.28 | 6 of 6 | 0 of 18 |
| GFDLNSYGIS | VIYSDGRRTFYIDSVK | GRNAGTFDS | GP_Gen | 0.44 | 6 of 6 | 0 of 18 |
| GFTLDSYGIS | VIYSDGRRTWYGDSTK | GRAAGNALL | Rand | nd | 0 of 6 | 0 of 18 |
| GFDLNEYGIS | VIYADGMRTAYEDKVK | GTFLDAGWL | En_Gibbs | nd | 0 of 6 | 0 of 18 |
| GFDLDEYGIS | VIYADGKRTAYADNVK | GEVAGTFDL | En_Gen | -0.50 | 6 of 6 | 0 of 18 |
| GFDLNEYGIS | VIYADGMRTAYIDSVK | GSNAGTFDV | En_Gen | -0.66 | 6 of 6 | 1 of 18 |
| GFNLNSYGIS | VIYSDGRRTFYADAVK | GQEAGTFDS | GP_Gibbs | nd | 0 of 6 | 0 of 18 |
| GFQLDEMGIS | VIYADGARTQYKSKVK | GGNGDKFDV | En_Gibbs | nd | 0 of 6 | 1 of 18 |
| GFDLNEYGIS | VIYADGRRTFYVDSVK | GHNAGTFDV | En_HC | -0.72 | 6 of 6 | 0 of 18 |
| GFTLNSYGIS | VIYADGRRTFYGDSVK | GHAAGTFDA | GPLM_Gen | 0.19 | 6 of 6 | 0 of 18 |
| GFDLGEYGIS | VIYADGKRTAYVENVK | GTFGGTLLD | En_Gibbs | nd | 0 of 6 | 0 of 18 |
| GFDLKEYGIS | VIYADGRRTAYDNDVK | GQVLGIFLD | En_Gibbs | nd | 0 of 6 | 1 of 18 |
| GFTLNSYGIS | VIYSDGRRTFYGDEVK | GQLAGTFDS | Ctrl | 1.55 | 4 of 6 | 0 of 18 |
| GFSLNSYGIS | VIYSDGRRTFYGDSVK | GKAAGTFDL | GPLM_Gen | 0.82 | 6 of 6 | 0 of 18 |
| GFDLNEYGIS | VIYADGMRTAYSDSVK | GGNAGTFDV | En_Gen | -0.78 | 6 of 6 | 0 of 18 |
| GFDLNEYGIS | VIYADGVRTAYVDSVK | GGNAGTFDV | En_Gen | -0.94 | 6 of 6 | 1 of 18 |
| GFDLNEYGIS | VIYADGMRTAYADSVK | GDNAGTFDV | En_Gen | -0.35 | 6 of 6 | 0 of 18 |
| GFDLNEYGIS | VIYADGRRTFYVDSVK | GVNAGTFDD | En_HC | 1.87 | 5 of 6 | 0 of 18 |
| GRTLNSHGIS | VIYSDGRRTFYGDSVK | GRAAGTFDS | Ctrl | 0.56 | 6 of 6 | 1 of 18 |
| GFTVNEYGIS | VIYSDGRRTFYGDSVK | GRIAGTFDS | Ctrl | 0.50 | 6 of 6 | 0 of 18 |
| GFDLNEYGIS | VIYADGRRTFYADSVK | GQLAGTFSV | En_HC | -0.34 | 6 of 6 | 0 of 18 |
| GFDLNEYGIS | VIYADGMRTAYVDSVK | GNVAGTFDL | En_Gen | -0.63 | 6 of 6 | 0 of 18 |
| GFHLNEYGIS | VIYSDGRRTFYTDSVK | GVAAGTFDS | Ctrl | 0.57 | 6 of 6 | 0 of 18 |
| GFWLNEYGIS | VIYSDGRRTFYGDSVK | GTAAGTFDS | GP_Gen | 1.14 | 5 of 6 | 0 of 18 |
| GFDLNEYGIS | VIYADGQRTVYADSVK | GTNAGTFDV | En_Gen | -0.72 | 6 of 6 | 0 of 18 |
| GFTLENYGIS | VIYSDGRRTFYGDSVK | GEACLTFDS | Ctrl | 2.09 | 5 of 6 | 0 of 18 |
| GFTLNVYGIS | VIYSDGRRTQYIDSVK | GIAAGTFDS | Rand | nd | 0 of 6 | 0 of 18 |
| GFTLNSYGIS | VIYSDGRRTFYGDSVK | GQQAGTFDS | Ctrl | 1.73 | 3 of 6 | 0 of 18 |
| GFSLNEYGIS | VIYSDGRRTFYGDSVK | GGAAGTFDS | GPLM_Gen | -0.54 | 6 of 6 | 0 of 18 |
| GFDLDEYGIS | VIYADGRRTFYTDSVK | GEFAGTFDE | En_HC | nd | 0 of 6 | 0 of 18 |
| KFSLNSYGIS | VIYSDGRRTFYIDSVK | GNAAGTFDS | GP_Gen | nd | 0 of 6 | 0 of 18 |
| GFSLNNYGIS | VIYSDGRRTFYSDSVK | GEAAGTFDS | GPLM_Gen | 0.84 | 5 of 6 | 0 of 18 |
| GFDLDEYGIS | VIYADGVRMAYTDSVK | GNWSGRDMK | En_Gibbs | 2.00 | 1 of 6 | 0 of 18 |
| GFDLDEYGIS | VIYADGVRTAYADDVK | GNTAGTFDV | En_Gen | -0.47 | 6 of 6 | 0 of 18 |
| GFTLNSYGIS | VIYSDGRRTSYGDDVK | NRAPATFDS | Ctrl | nd | 0 of 6 | 1 of 18 |
| GFSLNSYGIS | VIYSDGRRTFYSDSVK | GREAGTFDT | GPLM_Gibbs | 0.04 | 6 of 6 | 1 of 18 |
| GFNLDEYGIS | VIYADGQRTQYANDVK | GGYAGSMLS | En_Gibbs | nd | 0 of 6 | 0 of 18 |
| GENLEEYGIS | VIYADGMRTQYAEKVK | GQQGGFFIK | En_Gibbs | nd | 0 of 6 | 0 of 18 |
| GFSLNEYGIS | VIYSDGRRTFYMDSVK | GRTAGTFDS | GPLM_Gen | 0.02 | 6 of 6 | 1 of 18 |
| GYDLDQYGIS | VIYADGMRSYYADSVK | GHEGGILYV | En_Gibbs | nd | 0 of 6 | 1 of 18 |
| GDDLEDYGIS | VIYADGRRRAYQENVK | GEYAGYFDV | En_Gibbs | nd | 0 of 6 | 2 of 18 |
| GFDLNEYGIS | VIYADGMRTSYADSVK | GNTAGTFDI | En_Gen | -0.64 | 6 of 6 | 0 of 18 |
| GFDLNEYGIS | VIYADGRRTFYADSVK | GNVAGTFFS | En_HC | -0.50 | 6 of 6 | 1 of 18 |
| GFNLNSYGIS | VIYSDGRRTFYADSVK | GSAAGTFDS | GPLM_Gen | 0.15 | 6 of 6 | 2 of 18 |
| GRDIEEYGIS | VIYADGLRTVYHDSVK | GQNAGFSIT | En_Gibbs | nd | 0 of 6 | 0 of 18 |
| GFDLNEYGIS | VIYADGRRTAYIDSVK | GTNAGTFDS | En_HC | -0.95 | 6 of 6 | 1 of 18 |
| GFELNMYGIS | VIYSDGKRTFYGDSVK | GRTAGTFDS | GP_Gen | 0.76 | 6 of 6 | 0 of 18 |
| GFDLQEYGIS | VIYADGQRTKVAENVK | GNVTFTGLV | En_Gibbs | nd | 0 of 6 | 0 of 18 |
| KFSLNEYGIS | VIYSDGRRTFYGDSVK | GRQAGTFDS | GPLM_Gibbs | 1.88 | 6 of 6 | 0 of 18 |
| GFTLNSYGIS | VIYSDGRRTFYIDSVK | GQAAGTFDT | GPLM_Gen | 1.09 | 5 of 6 | 0 of 18 |
| GFNLDEYGIS | VIYADGMRTAYADSVK | GNTAGTFDV | En_Gen | -0.23 | 4 of 6 | 0 of 18 |
| GFDLDEYGIS | VIYADGMRTFYADSVK | GEVAGTFDQ | En_Gen | -0.22 | 6 of 6 | 0 of 18 |
| GFTLNQYGIS | VIYSDGRRTFYSDSVK | GKDAGTFDS | GP_HC | 0.70 | 6 of 6 | 0 of 18 |
| GFNLNSYGIS | VIYSDGRRTFYADDVK | GRQAGTFDS | GP_Gen | 0.12 | 6 of 6 | 0 of 18 |
| GFDLDEYGIS | VIYADGRRTFYADSVK | GQAAGTFDQ | En_HC | -0.10 | 6 of 6 | 1 of 18 |
| GYSLDDYGIS | VIYADGKRKSYAEDVK | GNSGGSFMD | En_Gibbs | 2.90 | 1 of 6 | 0 of 18 |
| GFTLNSYGIS | VIYSDGRRTFYGDSVK | GTAATTFDL | Ctrl | nd | 0 of 6 | 0 of 18 |
| GFSLNSYGIS | VIYADGRRTFYGDSVK | GTAAGTFDK | GP_Gibbs | -0.36 | 6 of 6 | 1 of 18 |
| HFNLNSYGIS | VIYSDGRRTFYIDSVK | GNAAGTFDS | GPLM_Gibbs | 1.73 | 6 of 6 | 1 of 18 |
| GFDIDEYGIS | VIYADGSRAVYTESVK | GHNGNRLVG | En_Gibbs | nd | 0 of 6 | 0 of 18 |
| GFDLQEQGIS | VIYADGKRTAYAQNVK | GYIVGDIFD | En_Gibbs | nd | 0 of 6 | 0 of 18 |
| GFTLNNYGIS | VIYSDGRRTFYDDSVK | GQLAGTFQS | Rand | 2.22 | 3 of 6 | 1 of 18 |
| GFDLNEYGIS | VIYADGLRSAYTDEVK | GKGDNIVFH | En_Gibbs | nd | 0 of 6 | 0 of 18 |
| GFDLNSYGIS | VIYSDGRRTFYGDKVK | GKAAGTFDL | GP_Gibbs | 0.64 | 6 of 6 | 0 of 18 |
| GFDLNSYGIS | VIYSDGRRTFYGDKVK | GRQAGTFDS | GP_Gen | 0.45 | 6 of 6 | 0 of 18 |

Top 9 of the variants detected in all replicates, tightest first:

{"CDR-H1": "GFDLNEYGIS", "CDR-H2": "VIYADGRRTAYIDSVK", "CDR-H3": "GTNAGTFDS", "group": "En_HC", "log10 Kd (nM), mean": "-0.95", "seen in": "6 of 6", "signal with controls": "1 of 18"}
{"CDR-H1": "GFDLNEYGIS", "CDR-H2": "VIYADGVRTAYVDSVK", "CDR-H3": "GGNAGTFDV", "group": "En_Gen", "log10 Kd (nM), mean": "-0.94", "seen in": "6 of 6", "signal with controls": "1 of 18"}
{"CDR-H1": "GFDLNEYGIS", "CDR-H2": "VIYADGMRTAYSDSVK", "CDR-H3": "GGNAGTFDV", "group": "En_Gen", "log10 Kd (nM), mean": "-0.78", "seen in": "6 of 6", "signal with controls": "0 of 18"}
{"CDR-H1": "GFDLNEYGIS", "CDR-H2": "VIYADGQRTVYADSVK", "CDR-H3": "GTNAGTFDV", "group": "En_Gen", "log10 Kd (nM), mean": "-0.72", "seen in": "6 of 6", "signal with controls": "0 of 18"}
{"CDR-H1": "GFDLNEYGIS", "CDR-H2": "VIYADGRRTFYVDSVK", "CDR-H3": "GHNAGTFDV", "group": "En_HC", "log10 Kd (nM), mean": "-0.72", "seen in": "6 of 6", "signal with controls": "0 of 18"}
{"CDR-H1": "GFDLNEYGIS", "CDR-H2": "VIYADGMRTAYIDSVK", "CDR-H3": "GSNAGTFDV", "group": "En_Gen", "log10 Kd (nM), mean": "-0.66", "seen in": "6 of 6", "signal with controls": "1 of 18"}
{"CDR-H1": "GFDLNEYGIS", "CDR-H2": "VIYADGMRTSYADSVK", "CDR-H3": "GNTAGTFDI", "group": "En_Gen", "log10 Kd (nM), mean": "-0.64", "seen in": "6 of 6", "signal with controls": "0 of 18"}
{"CDR-H1": "GFDLNEYGIS", "CDR-H2": "VIYADGMRTAYVDSVK", "CDR-H3": "GNVAGTFDL", "group": "En_Gen", "log10 Kd (nM), mean": "-0.63", "seen in": "6 of 6", "signal with controls": "0 of 18"}
{"CDR-H1": "GFDLNEYGIS", "CDR-H2": "VIYADGMRTAYADSVK", "CDR-H3": "GNNAGTFDT", "group": "En_Gen", "log10 Kd (nM), mean": "-0.58", "seen in": "6 of 6", "signal with controls": "0 of 18"}

Of ten entries with the parent sequence, four were seen in most replicates (averages 0.34 to 2.37), three in one and three in none, so single entries are noisy. In the paper, a design with two or fewer of six values counts as a poor binder. Empty control strains, which show no peptide, gave a signal in 1% of pairings with all heavy chain designs; the median was 2.08 and 95% of these signals were weaker than 0.84. No background was subtracted. For each scFv, signals with the empty controls are counted beside the result.